From patent US7125872B2, “β-sheet mimetics and use thereof as inhibitors of biologically active peptides or proteins” (Myriad Genetics, Inc., priority 1995, dated 2006)

Sequences of proteins named here, by UniProt entry; tags and fusion partners are left off. Residues count along the entry.
UniProt P00742, 41-179 limits assumed: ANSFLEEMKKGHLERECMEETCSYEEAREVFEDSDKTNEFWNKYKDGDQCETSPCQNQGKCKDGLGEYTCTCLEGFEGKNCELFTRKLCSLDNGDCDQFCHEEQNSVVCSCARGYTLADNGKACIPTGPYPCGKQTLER
UniProt P00742, 235-488 limits assumed: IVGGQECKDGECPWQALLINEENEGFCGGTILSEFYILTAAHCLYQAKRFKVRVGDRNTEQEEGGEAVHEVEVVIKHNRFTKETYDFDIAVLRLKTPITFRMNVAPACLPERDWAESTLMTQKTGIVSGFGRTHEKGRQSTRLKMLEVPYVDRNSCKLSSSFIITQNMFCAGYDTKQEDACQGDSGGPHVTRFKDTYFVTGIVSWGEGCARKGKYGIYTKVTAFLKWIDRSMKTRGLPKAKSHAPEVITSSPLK

Target: Factor X (Homo sapiens, UniProt P00742)
Test: Factor X inhibition assay, Ki, enzyme source not stated
Format: biochemical
Settings: read-out: Ki Factor X; not marked bovine plasma

Ki | Compound
38 µM | COC(=O)c1cnc(C(=O)[C@H](CCCNC(=N)N)NC(=O)[C@@H]2CCN3CC[C@@](N)(Cc4ccccc4)C(=O)N23)[nH]1
57 µM | N=C(N)NC(=O)NC[C@H](NC(=O)[C@@H]1CCN2CC[C@@](N)(Cc3ccccc3)C(=O)N12)C(=O)c1nc2ccccc2s1
